Test results published in ChEMBL document CHEMBL1177773, “Design, synthesis and anticancer activity of piperazine hydroxamates and their histone deacetylase (HDAC) inhibitory activity” (Bioorg Med Chem Lett, 2010).

Target: T1, Histone deacetylase 8 (Homo sapiens, UniProt Q9BY41)
T1 sequence (Q9BY41 whole entry): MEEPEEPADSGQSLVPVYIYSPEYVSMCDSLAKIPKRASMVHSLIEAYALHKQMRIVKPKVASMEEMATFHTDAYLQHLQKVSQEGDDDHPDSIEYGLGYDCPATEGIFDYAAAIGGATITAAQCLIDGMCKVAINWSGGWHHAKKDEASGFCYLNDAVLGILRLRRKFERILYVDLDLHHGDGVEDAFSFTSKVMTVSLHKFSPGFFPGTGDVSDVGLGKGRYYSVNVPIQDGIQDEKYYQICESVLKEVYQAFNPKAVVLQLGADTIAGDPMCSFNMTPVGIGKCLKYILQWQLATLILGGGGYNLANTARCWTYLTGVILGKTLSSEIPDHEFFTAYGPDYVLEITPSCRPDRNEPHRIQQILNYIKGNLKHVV
Assay: Inhibition of human HDAC8

O=C(CCCCCCC(=O)Nc1ccccc1)NO [VORINOSTAT]
IC50: 45 nM
